# Data published in patent publication US20250289789A1, “REVERSIBLE LYSINE COVALENT MODIFIERS OF CDK2 AND USES THEREOF” (Terremoto Biosciences, Inc., priority 2023, published 2025).
# The chains behind the UniProt entries cited, without tags or fusion partners.
# UniProt P06493, whole entry: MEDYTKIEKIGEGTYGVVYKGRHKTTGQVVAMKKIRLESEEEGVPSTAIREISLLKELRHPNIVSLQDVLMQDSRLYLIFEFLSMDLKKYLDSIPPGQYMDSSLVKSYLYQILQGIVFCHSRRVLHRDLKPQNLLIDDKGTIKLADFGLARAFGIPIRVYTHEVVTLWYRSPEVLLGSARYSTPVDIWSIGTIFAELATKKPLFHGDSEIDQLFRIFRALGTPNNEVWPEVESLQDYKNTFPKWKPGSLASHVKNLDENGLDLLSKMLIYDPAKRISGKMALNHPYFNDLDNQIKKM
# UniProt P11802, whole entry: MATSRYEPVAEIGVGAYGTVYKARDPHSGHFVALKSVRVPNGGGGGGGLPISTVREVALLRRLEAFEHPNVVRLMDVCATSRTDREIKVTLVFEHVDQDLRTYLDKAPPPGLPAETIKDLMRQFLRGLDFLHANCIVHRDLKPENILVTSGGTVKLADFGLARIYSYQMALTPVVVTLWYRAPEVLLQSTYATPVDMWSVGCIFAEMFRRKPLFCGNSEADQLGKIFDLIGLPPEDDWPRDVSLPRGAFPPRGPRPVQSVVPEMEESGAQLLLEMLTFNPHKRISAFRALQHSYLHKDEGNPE
# UniProt P14635, whole entry partner: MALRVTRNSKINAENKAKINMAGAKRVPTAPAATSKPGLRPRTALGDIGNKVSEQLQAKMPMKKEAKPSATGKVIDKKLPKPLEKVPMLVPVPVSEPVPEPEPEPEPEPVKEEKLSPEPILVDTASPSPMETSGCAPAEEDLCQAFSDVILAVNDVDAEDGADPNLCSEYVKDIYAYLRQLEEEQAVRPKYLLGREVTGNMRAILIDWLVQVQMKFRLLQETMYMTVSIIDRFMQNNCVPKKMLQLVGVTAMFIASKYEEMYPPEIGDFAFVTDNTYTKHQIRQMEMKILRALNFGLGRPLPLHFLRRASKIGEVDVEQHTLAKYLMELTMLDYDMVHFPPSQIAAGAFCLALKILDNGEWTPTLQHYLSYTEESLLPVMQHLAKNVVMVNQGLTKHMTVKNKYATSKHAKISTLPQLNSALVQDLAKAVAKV
# UniProt P24385, whole entry partner: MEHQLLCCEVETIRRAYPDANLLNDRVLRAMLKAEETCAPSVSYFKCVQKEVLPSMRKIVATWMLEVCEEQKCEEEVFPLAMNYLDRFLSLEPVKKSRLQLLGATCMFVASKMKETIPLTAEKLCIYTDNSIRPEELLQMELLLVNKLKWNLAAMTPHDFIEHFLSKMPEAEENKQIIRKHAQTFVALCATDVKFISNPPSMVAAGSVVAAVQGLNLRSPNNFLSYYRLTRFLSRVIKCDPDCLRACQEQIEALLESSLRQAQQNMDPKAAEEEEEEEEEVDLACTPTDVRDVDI
# Assays:
# [1] = target: CDK2-NanoLuc fusion with CCNE1 in 293T or 293 cells (Homo sapiens, UniProt P24941); assay: NanoBRET Target Engagement (TE) Intracellular Kinase Assay, CDK2/CCNE1; details: read-out: NanoBRET-CDK2/E1 IC50, 2-hour incubation
# [2] = test system: Phospho-Rb Ser807/811 in OVCAR3 cells; assay: OVCAR3 Phospho-Rb Ser807/811 HTRF assay; details: read-out: pRb-OVCAR3 IC50, 1 hour incubation
# [3] = target: CDK1-NanoLuc fusion with CCNB1 in 293T or 293 cells (Homo sapiens, UniProt P06493); assay: NanoBRET Target Engagement (TE) Intracellular Kinase Assay, CDK1/CCNB1; details: read-out: NanoBRET-CDK1/B1 IC50, 2-hour incubation
# [4] = target: CDK4-NanoLuc fusion with CCND1 in 293T or 293 cells (Homo sapiens, UniProt P11802); assay: NanoBRET Target Engagement (TE) Intracellular Kinase Assay, CDK4/CCND1; details: read-out: NanoBRET-CDK4/D1 IC50, 2-hour incubation
Structure (SMILES),IC50 [1] [nM],IC50 [2] [nM],IC50 [3] [nM],IC50 [4] [nM]
Cc1cc(O)c(C=O)c(CCC(=O)Nc2cc([C@H]3CC[C@@H](OC(=O)NC(C)C)C3)[nH]n2)c1,5.38,556,269,> 10000
CC(C)NC(=O)O[C@@H]1CC[C@H](c2cc(NC(=O)c3cc(-c4cccc(O)c4C=O)ns3)n[nH]2)C1,9.38,1190,64.3,7090
